# Assay results taken from patent publication US11667602B2, “Compounds and their use” (AstraZeneca AB, priority 2020, dated 2023).
# By UniProt entry, the sequences of proteins in these tests, tags left out.
# UniProt Q9HBX9, whole entry: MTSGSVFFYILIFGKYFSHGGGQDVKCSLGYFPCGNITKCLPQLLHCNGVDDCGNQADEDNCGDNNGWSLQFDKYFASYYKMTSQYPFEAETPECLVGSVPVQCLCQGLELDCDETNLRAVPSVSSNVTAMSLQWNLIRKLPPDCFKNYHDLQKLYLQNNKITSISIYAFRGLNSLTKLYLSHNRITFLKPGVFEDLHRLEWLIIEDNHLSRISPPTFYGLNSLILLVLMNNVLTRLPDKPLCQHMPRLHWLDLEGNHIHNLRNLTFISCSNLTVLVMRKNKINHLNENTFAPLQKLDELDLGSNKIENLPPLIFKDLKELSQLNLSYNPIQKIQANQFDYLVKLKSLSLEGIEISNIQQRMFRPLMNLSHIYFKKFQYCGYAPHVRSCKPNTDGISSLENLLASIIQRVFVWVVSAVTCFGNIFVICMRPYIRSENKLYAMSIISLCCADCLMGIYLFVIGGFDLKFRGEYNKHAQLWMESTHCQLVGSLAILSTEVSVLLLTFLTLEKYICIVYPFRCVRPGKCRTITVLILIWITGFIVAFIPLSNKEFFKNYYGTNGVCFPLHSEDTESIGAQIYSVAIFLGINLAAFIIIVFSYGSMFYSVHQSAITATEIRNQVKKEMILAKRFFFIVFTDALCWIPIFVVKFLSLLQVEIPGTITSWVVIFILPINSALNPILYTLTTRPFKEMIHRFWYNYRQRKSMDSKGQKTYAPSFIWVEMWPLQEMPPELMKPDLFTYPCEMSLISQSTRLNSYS
# Key:
# [1] = Human Plasma Protein Binding (Test B); details: fraction unbound (fu)
# [2] = Human Liver Microsomal Stability (Test C); type: in vitro ADME; details: human liver microsomes
# Procedure: Human Liver Microsomal Stability (Test C)
# The assay was conducted according to the Human Liver Microsome Stability Assay described in pages 170-174 of Wernevik, J. et al., “A Fully Integrated Assay Panel for Early Drug Metabolism and Pharmacokinetics Profiling”, Assay and Drug Development Technologies, 2020, 18(4), 157-179. Data are reported in Table 36 as CLint (μl/min/mg protein). Where the assay was run multiple times for the same compound, the arithmetic mean is reported.
# [3] = Rat Hepatocyte Stability (Test E); type: in vitro ADME; details: rat hepatocytes; geometric mean if run multiple times
# Procedure: Rat Hepatocyte Stability (Test E)
# The assay was conducted according to the Rat Hepatocyte Stability Assay described in pages 170-174 of Wernevik, J. et al., “A Fully Integrated Assay Panel for Early Drug Metabolism and Pharmacokinetics Profiling”, Assay and Drug Development Technologies, 2020, 18(4), 157-179. Data are reported in Table 36 as mean Clint(μl/min/10^6 cells). Where the assay was run multiple times for the same compound, the geometric mean is reported.
# Solubility (Test F) = details: arithmetic mean if run multiple times
# human RXFP1 = human RXFP1 (Homo sapiens, UniProt Q9HBX9); experiment: RXFP1 Hu cAMP (Test A); type: cell-based; details: for EC50: read-out: Test A EC50
# [4] = Human Hepatocyte Stability (Test D); type: in vitro ADME; details: human hepatocytes; geometric mean if run multiple times
SMILES,Test B Human Plasma Protein Binding (% free) [1] [% free],Test C Human Liver Microsomal Stability Clint [2] [µL/min/mg],Test E Rat Hepatocyte Stability Clint [3] [μL/min/10^6 cells],Test F Solubility (Solubility (Test F)) [µM],Test A Sinf (human RXFP1) [%],EC50 (human RXFP1) [nM],Test D Human Hepatocyte Stability Clint [4] [μL/min/10^6 cells]
COc1cc(F)c(-c2cnc(CCC(=O)O)nc2)cc1C(=O)N[C@@H]1[C@H]2CC[C@H](C2)[C@@H]1C(=O)Nc1cccc(S(=O)(=O)C(F)(F)F)c1,4.6,32,17,>1000,101,380,
COc1cc(C#N)c(O[C@H]2CC[C@@](C)(C(=O)O)CC2)cc1C(=O)N[C@@H]1[C@H]2CC[C@H](C2)[C@@H]1C(=O)NCC(C)(C)F,20,5,13,770,113,240,<1
COc1cc(F)c(O[C@H]2CC[C@@](C)(C(=O)O)CC2)cc1C(=O)Nc1c(C)nsc1C(=O)NCC1(C)CCC1,4.3,18,17,38,,> 9400,
COc1cc(F)c(O[C@H]2CC[C@@](C)(C(=O)O)CC2)cc1C(=O)Nc1ccc(Cl)cc1C(=O)NCC1(C)CCC1,<0.34,5.6,37,0.80,146,130,
COc1cc(F)c(O[C@H]2CC[C@@](C)(C(=O)O)CC2)cc1C(=O)N[C@@H]1CCC[C@@H]1C(=O)NCC(C)(C)C(F)(F)F,,<3,9,>1000,99,400,
COc1cc(F)c(O[C@H]2CC[C@@](C)(C(=O)O)CC2)cc1C(=O)Nc1ccsc1C(=O)NCC1(C)CCC1,<0.30,11,70,160,95,> 2100,
COc1cc(F)c(O[C@H]2CC[C@@](C)(C(=O)O)CC2)cc1C(=O)N[C@H]1CCCCCC[C@H]1C(=O)NCC1(C)CCC1 (relative stereo),1.7,90,56,570,87,> 2900,
